Measured values: PubChem BioAssay AID1208 (EPA DSSTox, 2008)
Activity calls are given as the source filed them.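 The calls were made as follows: active = at least one rat sex group has a carcinogenic potency value and tumor site recorded; inconclusive = only rat studies were judged inadequate by the national testing program; inactive = no potency or tumor site, with negative rat experiments.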

System: rat chronic carcinogenicity bioassay, TD50
Assay: DSSTox (CPDBAS) Carcinogenic Potency Database Summary Rat Bioassay Results
Conditions: for Potency: hits give low values; for outcome: TD50_Rat_Note: no positive results
Text: The Carcinogenic Potency Database (CPDB) is a unique and widely used international resource of the results of over 6500 chronic, long-term animal cancer tests on over 1500 chemical substances. The CPDB provides easy access to the bioassay literature, with qualitative and quantitative analyses of both positive and negative experiments that have been published over the past 50 years in the general literature and by the National Cancer Institute/National Toxicology Program. The CPDB standardizes the diverse literature of cancer bioassays that vary widely in protocol, histopathological examination and nomenclature, and in the published author's choices of what information to provide in their papers. Results are reported in the CPDB for tests in rats, mice, hamsters, dogs, and nonhuman primates, and are based on the most positive result among all experiments for each sex-species. The DSSTox CPDBAS (all species) file incorporates data from the CPDB Summary Tables for the full list of over 1500 chemical substances tested in at least one species. Summary bioassay results for Rat (TD50, tumor sites, male, female, both sexes) are provided in the CPDB Summary Tables and the DSSTox CPDBAS file for over 1200 chemical substances.
TD50 is a standardized quantitative measure of carcinogenic potency (analogous to an LD50) and is reported in the CPDB Summary Table for each species. Activity Score for actives is computed by mapping of LOG10 (1/TD50_Rat_mmol) activity values spanning range [MIN, MAX] onto Integer 1-100 Activity Score range, where 100 is highest potency and 1 is lowest: Activity Score = 100 * INTEGER[(log10(1/Activity) - MIN)/(MAX - MIN)]. If activity is reported but no TD50_Rat_mmol value is computed, such as for a mixture, the Activity Score is assigned the activity value "50". […] Target sites are reported for each sex-species group with a positive result in the CPDB on the basis of a positive author's opinion for the particular site, using all results from both the general literature and NCI/NTP bioassays. If a chemical has two or more target sites listed, the results may be from different experiments, and a single site may be a target organ in more than one experiment, as well. Blank entry in TargetSites field indicates no results reported.

[1] = TargetSites_Rat_Female: no positive results

In the case of `CN[N+](=O)[O-]`, the Potency (TD50_Rat_Note: TD50 is harmonic mean of more than one positive test, TargetSites_Rat_Female: nervous system) is reported as 17.4 mg/kg/day.
For `CN(C)[N+](=O)[O-]`, the Potency (TargetSites_Rat_Female: liver, nasal cavity) was 0.547 mg/kg/day.
`O=[N+]([O-])c1cc([N+](=O)[O-])cc([N+](=O)[O-])c1` was tested, and the outcome [1] was “inactive; no positive results”.
For `O=[N+]([O-])OCC(CO[N+](=O)[O-])(CO[N+](=O)[O-])CO[N+](=O)[O-]`, the outcome [1] was “inactive; no positive results”.
`Cc1ccc([N+](=O)[O-])cc1[N+](=O)[O-]` was tested, and the Potency (TD50_Rat_Note: TD50 is harmonic mean of more than one positive test, TargetSites_Rat_Female: liver, mammary gland) was 6.21 mg/kg/day, the outcome was “inactive; no positive results” and the outcome [1] was “inactive; no positive results”. It also gave a Potency of 8.02 mg/kg/day.
For `ClCl`, the outcome [1] was “inactive; no positive results”.
With `Cc1c([N+](=O)[O-])cccc1[N+](=O)[O-]` the Potency (TD50_Rat_Note: TD50 is harmonic mean of more than one positive test) was 0.292 mg/kg/day.
Work on `COP(C)(=O)OC` yielded a Potency [1] of 700 mg/kg/day.
